Laboratory results taken from patent US20250109141A1, “BRD4 PROTEIN DEGRADER COMPOUND, AND PREPARATION METHOD AND USE THEREOF” (Miracure Biotechnology Limited, priority 2023, published 2025).

Target: BRD4 (Homo sapiens, UniProt O60885)
Experiment: BRD4 degradation assay (Western-blot / Simple Western) in 22RV1
Conditions: 22RV1 cells, target content as percentage of control (DMSO = 100%)

Which “BRD4 degradation of 22RV1 (200 nM 5 h)” value does the source give for Cc1sc2c(c1C)C(c1ccc(C#CCN)cc1)=N[C@@H](CC13OCC(C)(CO1)CO3)c1nnc(C)n1-2 [Compound 9113] here?
The value was “D (80%<D<100%)”.
